Values quoted from earlier work in paper PMC12399788, “A Comparison of the Molecular Pharmacological Properties of Current Short, Long, and Ultra‐Long‐Acting β2‐Agonists Used for Asthma and COPD” (Pharmacology Research & Perspectives, 2025).

Tests used:
guinea pig tracheal = tested on: guinea pig tracheal; set-up: method as in PMID 20402514; conditions: guinea pig tracheal studies

Compound: OCc1cc(C(O)CNCCCCCCOCCCCc2ccccc2)ccc1O (stereo not drawn) [Salmeterol, salmeterol]
- duration (guinea pig tracheal): over 12 h
- duration relative to formoterol, fenoterol, salbutamol and terbutaline (isolated human bronchus): 40 times longer
- duration of action (human trachea): > 125 min
